We go through three molecules from patent US7375136B2, “pH-dependent NMDA receptor antagonists” (Emory University, priority 2001, dated 2008).

Protein sequences, listed by entry. Tags and fused reporters are not part of them. Residues count along the entry.
UniProt Q13224, 27-1484 limits assumed: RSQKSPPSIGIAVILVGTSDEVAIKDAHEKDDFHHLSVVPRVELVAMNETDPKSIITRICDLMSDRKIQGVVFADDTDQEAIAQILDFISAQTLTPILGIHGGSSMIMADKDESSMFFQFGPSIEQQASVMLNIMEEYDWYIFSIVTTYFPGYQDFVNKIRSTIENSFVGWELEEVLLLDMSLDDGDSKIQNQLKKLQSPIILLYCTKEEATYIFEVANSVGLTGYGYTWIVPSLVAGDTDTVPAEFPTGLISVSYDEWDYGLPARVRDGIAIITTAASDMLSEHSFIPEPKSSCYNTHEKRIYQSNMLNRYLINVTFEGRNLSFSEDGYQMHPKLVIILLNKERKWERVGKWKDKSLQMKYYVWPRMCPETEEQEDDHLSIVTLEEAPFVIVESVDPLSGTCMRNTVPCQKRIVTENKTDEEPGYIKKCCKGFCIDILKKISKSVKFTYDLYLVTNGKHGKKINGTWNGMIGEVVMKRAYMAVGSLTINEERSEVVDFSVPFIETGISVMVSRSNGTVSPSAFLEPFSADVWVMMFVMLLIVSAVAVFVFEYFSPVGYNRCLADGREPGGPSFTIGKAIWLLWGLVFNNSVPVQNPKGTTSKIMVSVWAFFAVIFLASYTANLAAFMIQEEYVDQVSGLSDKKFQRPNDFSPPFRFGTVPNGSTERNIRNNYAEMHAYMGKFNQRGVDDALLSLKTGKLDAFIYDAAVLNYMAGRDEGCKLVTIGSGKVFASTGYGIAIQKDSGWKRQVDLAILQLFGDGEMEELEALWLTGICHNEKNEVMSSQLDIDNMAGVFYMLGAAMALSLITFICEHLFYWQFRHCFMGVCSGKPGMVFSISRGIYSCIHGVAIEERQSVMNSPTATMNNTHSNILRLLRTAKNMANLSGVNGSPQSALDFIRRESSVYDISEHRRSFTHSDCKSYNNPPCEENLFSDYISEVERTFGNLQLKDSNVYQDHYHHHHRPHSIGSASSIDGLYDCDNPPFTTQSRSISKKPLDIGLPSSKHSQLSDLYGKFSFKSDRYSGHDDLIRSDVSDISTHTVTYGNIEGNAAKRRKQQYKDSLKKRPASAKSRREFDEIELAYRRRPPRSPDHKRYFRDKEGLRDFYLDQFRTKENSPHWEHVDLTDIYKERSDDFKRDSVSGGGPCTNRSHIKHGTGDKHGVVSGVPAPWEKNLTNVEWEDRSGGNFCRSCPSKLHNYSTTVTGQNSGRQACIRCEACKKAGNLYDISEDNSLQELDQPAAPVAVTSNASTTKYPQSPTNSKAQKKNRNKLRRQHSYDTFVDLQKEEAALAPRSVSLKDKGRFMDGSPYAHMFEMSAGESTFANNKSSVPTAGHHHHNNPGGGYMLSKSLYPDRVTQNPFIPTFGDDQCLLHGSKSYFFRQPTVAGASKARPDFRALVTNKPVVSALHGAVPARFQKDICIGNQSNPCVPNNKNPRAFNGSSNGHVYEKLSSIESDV

In this experiment the target is NR1-1a/NR2B receptors (Homo sapiens, UniProt Q05586+Q13224). In words: Two electrode voltage clamp of Xenopus oocytes expressing NR1-1a and NR2B NMDA receptor subunits; inhibition of glutamate/glycine current at pH 6.9 and 7.6. The note with it: for Fold increase in potency between pH 7.6 and 6.9: IC50 at pH 7.6/IC50 at pH 6.9; for IC50: read-out: IC50 at pH 6.9, pH 6.9, NR1-1a/NR2B in Xenopus oocytes. The experiment is classed as cell-based. (In general: Two-electrode voltage clamp is typically applied to oocytes expressing channels or transporters.)

[1] abbreviates: Table A, tested form: hydrochloride monohydrate.
The mark [2] stands for this setting: Table B, tested form: hydrochloride.

Like-named read-outs stand apart in the source and are kept apart here.

One may read the IC50 as the concentration that inhibits the measured activity by half. Take `CN(CCc1ccc(Cl)c(Cl)c1)C[C@@H](O)COc1ccc(NS(C)(=O)=O)cc1`: under setting [1], the “Fold increase in potency between pH 7.6 and 6.9” value (“Fold increase” for short) is on record as 11.3; the IC50 stood at 0.085 µM.

Consider `CS(=O)(=O)Nc1ccc(OC[C@H](O)CNCCc2ccc(Cl)c(Cl)c2)cc1`, for which, under setting [2], the “Fold increase” value was determined as 3.26; the concentration for half-maximal inhibition (IC50) stood at 0.099 µM.

Turning to `CS(=O)(=O)Nc1ccc(OCC(O)CNCCc2ccc(Cl)cc2Cl)cc1` (stereo not drawn), where the note is “Table A”, the “Fold increase” value is 11.8; the IC50 is 1.36 µM.
